Key:
rat VMAT2 (rVMAT2) = rat VMAT2 (rVMAT2) (Rattus norvegicus, UniProt Q01827); assay: [3H]5-HT uptake inhibition in rat brain synaptic vesicular fraction; format: biochemical
VMAT2 = VMAT2 (Rattus norvegicus, UniProt Q01827); assay: [3H]5-HT release from rat brain synaptic vesicles via VMAT2; format: biochemical

The chains behind the UniProt entries cited, without tags or fusion partners.
UniProt Q01827, whole entry: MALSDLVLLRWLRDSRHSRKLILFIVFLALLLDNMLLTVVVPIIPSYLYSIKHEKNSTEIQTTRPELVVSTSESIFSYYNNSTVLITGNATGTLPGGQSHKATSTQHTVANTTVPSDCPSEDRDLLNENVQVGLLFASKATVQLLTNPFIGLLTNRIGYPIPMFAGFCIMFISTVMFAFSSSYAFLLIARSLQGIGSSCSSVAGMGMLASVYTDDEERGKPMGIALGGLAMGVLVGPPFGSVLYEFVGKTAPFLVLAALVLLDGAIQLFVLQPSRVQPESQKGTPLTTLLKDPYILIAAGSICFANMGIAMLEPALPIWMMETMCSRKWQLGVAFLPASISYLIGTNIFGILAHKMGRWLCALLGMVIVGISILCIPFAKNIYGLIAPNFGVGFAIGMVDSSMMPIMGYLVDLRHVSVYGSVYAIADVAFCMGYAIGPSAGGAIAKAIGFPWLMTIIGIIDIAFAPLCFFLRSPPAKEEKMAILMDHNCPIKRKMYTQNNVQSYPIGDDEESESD

COC(=O)[C@H]1[C@H]2C[C@@H]3c4[nH]c5cc(OC)ccc5c4CCN3C[C@H]2C[C@@H](OC(=O)c2cc(OC)c(OC)c(OC)c2)[C@@H]1OC [reserpine, reference compound]
IC50 (rat VMAT2 (rVMAT2)): 186 ± 26.8 nM
[3H]5-HT Release EC50 ± SD via VMAT2 (VMAT2): inactive

COc1cc2c(cc1OC)C1CC(=O)C(CC(C)C)CN1CC2 (stereo not drawn) [tetrabenazine (TBZ), tetrabenazine, reference compound]
[3H]5-HT Release EC50 ± SD via VMAT2 (VMAT2): inactive

Reference: PMC13600255 (Journal of the American Chemical Society, 2025)
